Assay results as given in paper PMC7827085 (Pharmaceutics, 2021).

By UniProt entry, the sequences of proteins in these tests, tags left out. Where a name states a change or a piece, a line headed by the entry shows the natural chain unless it says otherwise.
UniProt P46721: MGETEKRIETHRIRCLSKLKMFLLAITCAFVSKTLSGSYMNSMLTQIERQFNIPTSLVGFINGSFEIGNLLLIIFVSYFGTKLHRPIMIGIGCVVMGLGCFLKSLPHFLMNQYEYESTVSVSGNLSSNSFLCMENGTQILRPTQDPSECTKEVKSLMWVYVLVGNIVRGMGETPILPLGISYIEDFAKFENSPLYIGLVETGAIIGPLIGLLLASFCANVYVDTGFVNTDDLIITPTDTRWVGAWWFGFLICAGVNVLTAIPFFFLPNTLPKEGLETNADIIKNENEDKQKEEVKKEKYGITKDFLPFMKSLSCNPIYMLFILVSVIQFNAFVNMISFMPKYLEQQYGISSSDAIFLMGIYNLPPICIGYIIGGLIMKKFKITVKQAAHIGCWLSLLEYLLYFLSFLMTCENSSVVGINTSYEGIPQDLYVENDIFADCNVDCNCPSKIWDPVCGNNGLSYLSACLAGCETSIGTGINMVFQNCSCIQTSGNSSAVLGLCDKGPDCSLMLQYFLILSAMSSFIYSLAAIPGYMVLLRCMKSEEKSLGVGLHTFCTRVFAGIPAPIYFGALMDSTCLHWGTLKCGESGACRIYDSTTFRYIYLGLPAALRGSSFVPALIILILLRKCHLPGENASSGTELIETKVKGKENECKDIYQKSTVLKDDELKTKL
UniProt Q9UNQ0: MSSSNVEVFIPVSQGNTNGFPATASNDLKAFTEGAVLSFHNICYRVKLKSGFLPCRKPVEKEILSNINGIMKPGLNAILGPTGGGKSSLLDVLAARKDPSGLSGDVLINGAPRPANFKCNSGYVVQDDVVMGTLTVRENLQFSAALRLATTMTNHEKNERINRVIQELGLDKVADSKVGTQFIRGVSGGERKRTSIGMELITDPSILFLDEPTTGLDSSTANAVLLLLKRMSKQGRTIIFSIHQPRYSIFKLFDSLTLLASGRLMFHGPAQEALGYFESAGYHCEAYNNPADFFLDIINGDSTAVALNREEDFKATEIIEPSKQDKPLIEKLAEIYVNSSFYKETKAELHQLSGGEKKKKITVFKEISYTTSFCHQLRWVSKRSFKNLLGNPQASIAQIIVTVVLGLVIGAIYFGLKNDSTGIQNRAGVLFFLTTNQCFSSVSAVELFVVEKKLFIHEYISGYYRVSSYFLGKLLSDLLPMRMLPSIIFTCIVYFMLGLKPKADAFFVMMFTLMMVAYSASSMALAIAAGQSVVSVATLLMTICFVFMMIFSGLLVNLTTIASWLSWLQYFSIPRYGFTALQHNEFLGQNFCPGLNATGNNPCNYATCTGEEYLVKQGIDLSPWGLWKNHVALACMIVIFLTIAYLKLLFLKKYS
UniProt P08183, whole entry: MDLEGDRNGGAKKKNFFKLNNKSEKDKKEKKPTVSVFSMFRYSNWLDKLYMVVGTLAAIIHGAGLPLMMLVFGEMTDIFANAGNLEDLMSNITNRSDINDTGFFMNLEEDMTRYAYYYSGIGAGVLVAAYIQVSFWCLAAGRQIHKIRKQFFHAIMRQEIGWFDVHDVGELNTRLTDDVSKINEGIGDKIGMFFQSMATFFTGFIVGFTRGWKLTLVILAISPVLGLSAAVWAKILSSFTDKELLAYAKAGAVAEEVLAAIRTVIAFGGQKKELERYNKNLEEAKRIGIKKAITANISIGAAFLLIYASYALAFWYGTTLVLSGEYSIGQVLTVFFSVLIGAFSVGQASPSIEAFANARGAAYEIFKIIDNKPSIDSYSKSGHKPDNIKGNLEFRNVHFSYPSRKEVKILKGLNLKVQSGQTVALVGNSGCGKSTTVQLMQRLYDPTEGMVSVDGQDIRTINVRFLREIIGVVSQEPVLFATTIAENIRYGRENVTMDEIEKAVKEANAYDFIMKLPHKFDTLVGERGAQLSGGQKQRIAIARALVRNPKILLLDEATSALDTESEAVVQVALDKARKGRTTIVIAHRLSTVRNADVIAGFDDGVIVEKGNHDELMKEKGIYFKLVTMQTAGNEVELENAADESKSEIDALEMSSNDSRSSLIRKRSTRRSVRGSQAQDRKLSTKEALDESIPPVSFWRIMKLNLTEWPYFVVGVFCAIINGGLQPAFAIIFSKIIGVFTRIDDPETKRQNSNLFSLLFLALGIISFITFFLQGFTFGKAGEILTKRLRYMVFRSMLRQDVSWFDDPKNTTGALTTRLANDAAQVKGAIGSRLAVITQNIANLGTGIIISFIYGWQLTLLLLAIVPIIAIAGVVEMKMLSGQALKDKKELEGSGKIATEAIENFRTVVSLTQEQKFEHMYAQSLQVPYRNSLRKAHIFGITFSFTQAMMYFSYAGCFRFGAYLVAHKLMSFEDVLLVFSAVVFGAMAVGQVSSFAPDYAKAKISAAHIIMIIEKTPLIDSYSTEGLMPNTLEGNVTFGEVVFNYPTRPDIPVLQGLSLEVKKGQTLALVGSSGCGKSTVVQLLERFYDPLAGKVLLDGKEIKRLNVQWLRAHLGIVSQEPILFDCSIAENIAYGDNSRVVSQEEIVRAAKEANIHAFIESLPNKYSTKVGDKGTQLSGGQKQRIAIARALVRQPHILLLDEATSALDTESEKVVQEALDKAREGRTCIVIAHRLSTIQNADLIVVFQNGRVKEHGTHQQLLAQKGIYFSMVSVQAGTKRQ

Assays:
OATP1A2 = OATP1A2 (Homo sapiens, UniProt P46721); conditions: read-out: Estimated Transporter Inhibition IC50, OATP1A2 cellular assay; 0.5 µM sulforhodamine 101 uptake, 10 min, pH 7.0, A431-OATP1A2 cells; '-' = no inhibition
ABCG2/BCRP = ABCG2/BCRP (Homo sapiens, UniProt Q9UNQ0); assay: ABCG2-ATPase activity in Sf9 membrane vesicles; assay type: biochemical; parameters: expressed in transfected cells; host or cells: PLB-985; conditions: Sf9/ABCG2 membranes; ivermectin, ritonavir, lopinavir at low micromolar, remdesivir at higher concentrations
wild-type ABCG2 = target: T1, wild-type ABCG2 (Homo sapiens, UniProt Q9UNQ0); assay: Hoechst 33342 dye extrusion in HeLa cells expressing wild-type ABCG2; assay type: cell-based; conditions: wild-type ABCG2, 0.2 µM Hoechst 33342, full inhibition by 1 µM Ko143
T1 construct: expressed in transfected cells; host or cells: HeLa (Sleeping Beauty transposon system)

ABCB1/Pgp = target: T2, ABCB1/Pgp (Homo sapiens, UniProt P08183); assay: ABCB1-ATPase activity in Sf9 membrane vesicles; assay type: biochemical; conditions: Sf9/ABCB1 membranes; 50 µM verapamil as reference activator
T2 construct: made in house; host or cells: Sf9 insect cells
Procedure: ABC transporter ATPase activity was measured in Sf9 membrane vesicles containing the respective human ABC transporters. For ABCG2/BCRP, the cholesterol level in the vesicles was increased to the level of mammalian cell membranes for full activity. For ABCB1/Pgp 20 μg/150 μL and for ABCG2/BCRP 10 μg/150 μL, vesicles were incubated with 3 mM Mg-ATP for 25 min at 37 °C. The test drugs were dissolved in DMSO and 1 µL was added to the samples. The ABC transporter-related ATPase activity was determined and reference activators (50 µM verapamil for ABCB1 and 5 µM quercetin for ABCG2) served as controls.
Drug-stimulated ATPase activity of the ABCB1 transporter is a well-documented functional assay employed to estimate the substrate or inhibitory features of various drugs. […] In this assay, most transported substrates show a biphasic curve: Low concentrations stimulate, while higher concentrations inhibit, the ATPase activity. In these experiments, we measured the vanadate-sensitive (ABC transporter-related) ABCB1-ATPase activity in membrane vesicles isolated from ABCB1 overexpressing Sf9 cells.

ivermectin
IC50 (OATP1A2): 5.2 µM
Effect on baseline ABCG2-ATPase activity (in words) (ABCG2/BCRP): significantly inhibited
Effect on Hst dye extrusion by ABCG2 in HeLa cells (in words) (wild-type ABCG2): inhibited
Effect on ABCB1-ATPase activity (in words) (ABCB1/Pgp): only showed ABCB1-ATPase inhibition
